target: T1, full-length B-Catenin (Uniprot ID P35222) (Homo sapiens, UniProt P35222); assay: biochemical; assay type: binding; conditions: beta-Catenin FP IC50 (nM), competition fluorescence polarization
T1 construct: 10 nM full-length B-Catenin (Uniprot ID P35222)

The chains behind the UniProt entries cited, without tags or fusion partners.
UniProt P35222, whole entry: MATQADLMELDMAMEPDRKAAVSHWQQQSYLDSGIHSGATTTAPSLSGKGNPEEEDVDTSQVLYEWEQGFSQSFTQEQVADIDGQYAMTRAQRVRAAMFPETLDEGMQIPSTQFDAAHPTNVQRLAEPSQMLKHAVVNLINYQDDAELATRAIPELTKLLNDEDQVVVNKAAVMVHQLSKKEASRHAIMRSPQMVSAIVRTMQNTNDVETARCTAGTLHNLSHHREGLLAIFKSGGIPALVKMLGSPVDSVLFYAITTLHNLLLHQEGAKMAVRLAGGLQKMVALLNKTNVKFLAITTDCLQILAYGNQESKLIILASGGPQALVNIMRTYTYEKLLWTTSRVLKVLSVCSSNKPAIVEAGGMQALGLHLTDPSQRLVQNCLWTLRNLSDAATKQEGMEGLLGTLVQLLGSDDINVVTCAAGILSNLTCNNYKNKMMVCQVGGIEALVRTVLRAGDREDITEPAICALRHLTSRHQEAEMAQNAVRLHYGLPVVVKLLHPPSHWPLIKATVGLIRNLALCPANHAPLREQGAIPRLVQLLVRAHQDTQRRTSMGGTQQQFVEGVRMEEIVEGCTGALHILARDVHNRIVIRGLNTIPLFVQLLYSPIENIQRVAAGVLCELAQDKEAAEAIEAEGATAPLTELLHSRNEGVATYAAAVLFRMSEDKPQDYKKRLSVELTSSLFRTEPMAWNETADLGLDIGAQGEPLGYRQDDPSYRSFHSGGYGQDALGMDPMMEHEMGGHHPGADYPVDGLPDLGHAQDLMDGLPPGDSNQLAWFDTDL

IC50 [nM] | SMILES
< 50 | CC(=O)N1CCC[C@]12CC=CCCCC1(CCCC=CCCCOC(=O)N3CC[C@@]4(C3)NC(=O)[C@H](CCCCNC(=O)CC[C@@H](C(=O)N[C@@H](C)C(=O)N[C@@H](CO)C(N)=O)NC(=O)[C@H](Cc3csc5ccccc35)NC(=O)[C@H](Cc3ccccc3C(F)(F)F)NC4=O)NC(=O)[C@H](Cc3ccccc3)NC(=O)[C@H](C)NC(=O)C(C)(C)NC(=O)[C@H](Cc3cccc(C(=O)O)c3)NC(=O)[C@H](CC(=O)O)NC1=O)NC(=O)[C@H](CC(C)(C)C)NC(=O)[C@H](CC(=O)O)NC2=O (relative stereo) [I-230, Ac-PL3-Asp-Npg-B5-Asp-3COOHF-Aib-Ala-Phe-Lys*3-PyrS2-2F3MeF-BztA-GlnR*3-Ala-Ser-NH2]
< 50 | CC(=O)N1CCC[C@]12CC=CCCCC1(CCCC=CCCCOC(=O)N3CC[C@@]4(C3)NC(=O)[C@H](CCCC(=O)N3CCC(CC3)C[C@@H](C(=O)N[C@@H](C)C(N)=O)NC(=O)[C@H](Cc3csc5ccccc35)NC(=O)[C@H](Cc3ccsc3)NC4=O)NC(=O)[C@H](Cc3ccccc3)NC(=O)[C@H](C)NC(=O)[C@H](C)NC(=O)[C@H](Cc3cccc(C(=O)O)c3)NC(=O)[C@H](CC(=O)O)NC1=O)NC(=O)[C@H](CC(C)(C)C)NC(=O)[C@H](CC(=O)O)NC2=O (relative stereo) [I-260, Ac-PL3-Asp-Npg-B5-Asp-3COOHF-Ala-Ala-Phe-hGlnR*3-PyrS2-3Thi-BztA-4PipA*3-Ala-NH2]
< 50 | CC(=O)N1CCC[C@]12CC=CCCCC1(CCCC=CCCCOC(=O)N3CC[C@@]4(C3)NC(=O)[C@H](CCCC(=O)N3CCC(CC3)C[C@@H](C(=O)N[C@@H](C)C(N)=O)NC(=O)[C@H](Cc3csc5ccccc35)NC(=O)[C@H](Cc3ccccc3C(F)(F)F)NC4=O)NC(=O)[C@H](Cc3ccccc3)NC(=O)[C@H](C)NC(=O)[C@H](C)NC(=O)[C@H](Cc3cccc(C(=O)O)c3)NC(=O)[C@H](CC(=O)O)NC1=O)NC(=O)[C@H](CC(C)(C)C)NC(=O)[C@H](CC(=O)O)NC2=O (relative stereo) [I-261, Ac-PL3-Asp-Npg-B5-Asp-3COOHF-Ala-Ala-Phe-hGlnR*3-PyrS2-2F3MeF-BztA-4PipA*3-Ala-NH2]
< 50 | CC(=O)N1CCC[C@]12CC=CCCCC1(CCCC=CCCCOC(=O)N3CC[C@@]4(C3)NC(=O)[C@H](CCCCn3cc(nn3)COC[C@@H](C(=O)N[C@@H](C)C(N)=O)NC(=O)[C@H](Cc3csc5ccccc35)NC(=O)[C@H](Cc3ccsc3)NC4=O)NC(=O)[C@H](Cc3ccccc3)NC(=O)[C@H](C)NC(=O)[C@H](C)NC(=O)[C@H](Cc3cccc(C(=O)O)c3)NC(=O)[C@H](CC(=O)O)NC1=O)NC(=O)[C@H](CC(C)(C)C)NC(=O)[C@H](CC(=O)O)NC2=O (relative stereo) [I-264, Ac-PL3-Asp-Npg-B5-Asp-3COOHF-Ala-Ala-Phe-TriAzLys*3-PyrS2-3Thi-BztA-sCH2S*3-Ala-NH2]
< 50 | CC(=O)N1CCC[C@]12CC=CCCCC1(CCCC=CCCCOC(=O)N3CC[C@@]4(C3)NC(=O)[C@H](CCCCNC(=O)CC[C@@H](C(=O)N[C@@H](C)C(N)=O)NC(=O)[C@H](Cc3csc5ccccc35)NC(=O)[C@H](Cc3ccccc3C(F)(F)F)NC4=O)NC(=O)[C@H](Cc3ccccc3)NC(=O)[C@H](C)NC(=O)C(C)(C)NC(=O)[C@H](Cc3cccc(C(=O)O)c3)NC(=O)[C@H]([C@H](C)C(=O)O)NC1=O)NC(=O)[C@H](CC(C)(C)C)NC(=O)[C@H](CC(=O)O)NC2=O (relative stereo) [I-286, Ac-PL3-Asp-Npg-B5-SbMeAsp-3COOHF-Aib-Ala-Phe-Lys*3-PyrS2-2F3MeF-BztA-GlnR*3-Ala-NH2]
50 to 200 | CC(=O)N1CCC[C@]12CC=CCCCC1(CCCC=CCCCOC(=O)N3CC[C@@]4(C3)NC(=O)[C@H](CCCCNC(=O)CC[C@@H](C(=O)N[C@@H](C)C(N)=O)NC(=O)[C@H](Cc3csc5ccccc35)NC(=O)[C@H](Cc3ccccc3C(F)(F)F)NC4=O)NC(=O)[C@H](Cc3ccccc3)NC(=O)[C@H](C)NC(=O)C(C)(C)NC(=O)[C@H](Cc3cccc(C(=O)O)c3)NC(=O)[C@H](CC(=O)O)NC1=O)NC(=O)[C@H](CC(C)(C)C)NC(=O)[C@@](C)(CC(=O)O)NC2=O (relative stereo) [I-290, Ac-PL3-aMeDAsp-Npg-B5-Asp-3COOHF-Aib-Ala-Phe-Lys*3-PyrS2-2F3MeF-BztA-GlnR*3-Ala-NH2]
< 50 | CC(=O)N1CCC[C@]12CC=CCCCC1(CCCC=CCCCOC(=O)N3CC[C@@]4(C3)NC(=O)[C@H](CCCCNC(=O)CC[C@@H](C(=O)N[C@@H](C)C(N)=O)NC(=O)[C@H](Cc3csc5ccccc35)NC(=O)[C@H](Cc3ccsc3)NC4=O)NC(=O)[C@H](Cc3ccccc3)NC(=O)[C@H](C)NC(=O)C(C)(C)NC(=O)[C@H](Cc3cccc(C(=O)O)c3)NC(=O)[C@H](CC(=O)O)NC1=O)NC(=O)C(C)(C)NC(=O)[C@H](CC(=O)O)NC2=O (relative stereo) [I-308, Ac-PL3-Asp-Aib-B5-Asp-3COOHF-Aib-Ala-Phe-Lys*3-PyrS2-3Thi-BztA-GlnR*3-Ala-NH2]
< 50 | CC(=O)N1CCC[C@]12CC=CCCCC1(CCCC=CCCCOC(=O)N3CC[C@@]4(C3)NC(=O)[C@H](CCCCNC(=O)CC[C@@H](C(=O)N[C@@H](C)C(N)=O)NC(=O)[C@H](Cc3csc5ccccc35)NC(=O)[C@H](Cc3ccsc3)NC4=O)NC(=O)[C@H](Cc3ccccc3)NC(=O)[C@H](C)NC(=O)C(C)(C)NC(=O)[C@H](Cc3cccc(C(=O)O)c3)NC(=O)[C@H](CC(=O)O)NC1=O)NC(=O)[C@H](c1ccccc1)NC(=O)[C@H](CC(=O)O)NC2=O (relative stereo) [I-309, Ac-PL3-Asp-Phg-B5-Asp-3COOHF-Aib-Ala-Phe-Lys*3-PyrS2-3Thi-BztA-GlnR*3-Ala-NH2]
200 to 750 | CC(=O)N1CCC[C@]12CC=CCCCC1(CCCC=CCCCOC(=O)N3CC[C@@]4(C3)NC(=O)[C@H](CCCCNC(=O)CC[C@@H](C(=O)N[C@@H](C)C(N)=O)NC(=O)[C@H](Cc3csc5ccccc35)NC(=O)[C@H](Cc3ccsc3)NC4=O)NC(=O)[C@H](Cc3ccccc3)NC(=O)[C@H](C)NC(=O)[C@H](CCC(=O)N3CCOCC3)NC(=O)[C@H](Cc3cccc(C(=O)O)c3)NC(=O)[C@H](CC(=O)O)NC1=O)NC(=O)[C@H](CC(C)(C)C)NC(=O)[C@H]([C@H](C)O)NC2=O (relative stereo) [I-325, Ac-PL3-aThr-Npg-B5-Asp-3COOHF-MorphGln-Ala-Phe-Lys*3-PyrS2-3Thi-BztA-GlnR*3-Ala-NH2]
< 50 | CC(=O)N1CCC[C@]12CC=CCCCC1(CCCC=CCCCOC(=O)N3CC[C@@]4(C3)NC(=O)[C@H](CCCCNC(=O)CC[C@@H](C(=O)N[C@@H](C)C(N)=O)NC(=O)[C@H](Cc3ccc(Cl)c(Cl)c3)NC(=O)[C@H](Cc3ccccc3C(F)(F)F)NC4=O)NC(=O)[C@H](Cc3ccccc3)NC(=O)[C@H](C)NC(=O)C(C)(C)NC(=O)[C@H](Cc3cccc(C(=O)O)c3)NC(=O)[C@H](CC(=O)O)NC1=O)NC(=O)[C@H](CC(C)(C)C)NC(=O)[C@H](CC(=O)O)NC2=O (relative stereo) [I-327, Ac-PL3-Asp-Npg-B5-Asp-3COOHF-Aib-Ala-Phe-Lys*3-PyrS2-2F3MeF-34ClF-GlnR*3-Ala-NH2]

— patent US20240360179A1, “STAPLED PEPTIDES AND METHODS THEREOF” (FOG PHARMACEUTICALS, INC., priority 2021, published 2024)
